For the test, the target named is hKCa2.3 (Homo sapiens, UniProt Q9UGI6). Description: Whole-cell patch-clamp of KCa2.3 currents. Type of test: cell-based. The following applies: read-out: EC50 KCa2.3 activation. (Patch clamp records ionic current or voltage across a cell membrane.)

Protein sequences, listed by entry. Tags and fused reporters are not part of them.
UniProt Q9UGI6, whole entry: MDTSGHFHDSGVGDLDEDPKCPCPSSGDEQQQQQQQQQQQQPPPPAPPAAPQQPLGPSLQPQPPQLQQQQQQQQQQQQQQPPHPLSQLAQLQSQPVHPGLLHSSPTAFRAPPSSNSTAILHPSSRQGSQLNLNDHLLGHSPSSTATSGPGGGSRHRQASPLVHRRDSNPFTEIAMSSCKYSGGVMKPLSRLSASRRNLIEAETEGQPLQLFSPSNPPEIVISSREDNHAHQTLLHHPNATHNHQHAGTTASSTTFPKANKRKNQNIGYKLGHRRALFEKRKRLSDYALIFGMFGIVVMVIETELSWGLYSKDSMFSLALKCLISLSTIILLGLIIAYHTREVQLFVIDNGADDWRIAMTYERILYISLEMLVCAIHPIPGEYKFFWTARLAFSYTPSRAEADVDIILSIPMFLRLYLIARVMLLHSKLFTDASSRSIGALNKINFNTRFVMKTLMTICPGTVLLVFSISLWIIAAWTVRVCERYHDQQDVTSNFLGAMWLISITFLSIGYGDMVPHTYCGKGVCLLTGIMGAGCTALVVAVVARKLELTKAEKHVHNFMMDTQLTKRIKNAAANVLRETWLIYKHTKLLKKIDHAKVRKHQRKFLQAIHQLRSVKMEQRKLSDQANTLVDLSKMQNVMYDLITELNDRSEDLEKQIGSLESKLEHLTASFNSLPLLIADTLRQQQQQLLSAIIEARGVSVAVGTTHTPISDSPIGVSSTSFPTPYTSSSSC

Consider `Nc1nc2ccc(OC(F)(F)F)cc2s1` [Riluzole, 2-amino-6-[trifluoromethoxy]benzothiazole, reference compound], for which the EC50 (commonly the concentration that produces a half-maximal response) was found to be 12.5 µM.
